From article doi:10.1101/2024.07.10.602929

Target: EGFR LIR1 peptide (EGFR residues 1076–1099), N-terminally biotinylated (UniProt P00533)
Test: BLI

Substance: LC3B (from UniProt Q9GZQ8 1-120) (natural protein)
- fold weaker binding to LIR1 than GABARAP: 8 fold
- fold weaker binding to LIR1 than GABARAPL1: 20 fold
